Experimental findings from patent US20080058324A1, “Alpha-Keto Carbonyl Calpain Inhibitors” (SANTHERA PHARMACEUTICALS (SCHWEIZ) AG, priority 2004, published 2008) are described below.

By UniProt entry, the sequences of proteins in these tests, tags left out. Residues count along the entry.
UniProt G1T4Q9, 60-263 limits assumed: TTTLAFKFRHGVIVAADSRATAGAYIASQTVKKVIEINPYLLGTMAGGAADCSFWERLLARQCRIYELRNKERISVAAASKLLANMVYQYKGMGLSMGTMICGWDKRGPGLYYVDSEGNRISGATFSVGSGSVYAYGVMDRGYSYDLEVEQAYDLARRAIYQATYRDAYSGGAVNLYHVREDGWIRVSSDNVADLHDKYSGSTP

SMILES strings stand for the structures.

Usually IC50 stands for the midpoint of a concentration-inhibition curve.

For one assay, the target named is 20S Proteasome (Oryctolagus cuniculus, UniProt G1T4Q9). The assay is described as follows: 20S Proteasome Assay. The following applies: read-out: 20S Prot IC50.
For assay [1], the system named is cellular calpains in C2C12 myoblasts. Nature of the assay: Calpain Inhibition Assay in C2C12 Myoblasts. The note with it: read-out: Calp I IC50 Myoblast.
The next assay deals with mdx mouse. The assay is described as follows: mdx mouse model for Duchenne Muscular Dystrophy, longterm treatment. The note with it: 3 week old mdx mice, treatment period of 4 weeks.

As to `CC(C)[C@H](NC(=O)OCc1ccccc1)C(=O)N[C@H](C=O)Cc1ccccc1`, the IC50 at 20S Proteasome is above 1 µM; in assay [1] it was 40 µM. Besides, the “activity in the mdx mouse model” value in the assay with mdx mouse is “only weak activity”.
